# Reference: US7972829B2, “Process for producing transglutaminase” (Ajinomoto Co., Inc., priority 1999, dated 2011)
# System: proline specific peptidase (svPEP)
# Experiment: Substrate specificity of svPEP (cleaving activity on pNA-, βNA-conjugated peptides and peptides)
# Format: biochemical, S. mobaraense IFO13819
# Conditions: 20 mM sodium phosphate buffer pH 6.5, 37° C., 5 min; AAP-pNA = 100
row,Substance,relative activity (specificity of svPEP for peptide substrate) [%]
1,AP-pNA [p-nitroanilide peptide substrate for svPEP],0.53
2,DP-pNA [p-nitroanilide peptide substrate for svPEP],0.00
3,GP-βNA [β-naphtylamido peptide substrate for svPEP],0.40
4,RP-pNA [p-nitroanilide peptide substrate for svPEP],0.94
5,Z-GP-βNA [β-naphtylamido peptide substrate for svPEP],0.04
